We go through 2 compounds from paper PMC7125024 (ChemMedChem, 2020).

Chains of the proteins cited; added tags and fusions are not shown.
UniProt P27338, whole entry: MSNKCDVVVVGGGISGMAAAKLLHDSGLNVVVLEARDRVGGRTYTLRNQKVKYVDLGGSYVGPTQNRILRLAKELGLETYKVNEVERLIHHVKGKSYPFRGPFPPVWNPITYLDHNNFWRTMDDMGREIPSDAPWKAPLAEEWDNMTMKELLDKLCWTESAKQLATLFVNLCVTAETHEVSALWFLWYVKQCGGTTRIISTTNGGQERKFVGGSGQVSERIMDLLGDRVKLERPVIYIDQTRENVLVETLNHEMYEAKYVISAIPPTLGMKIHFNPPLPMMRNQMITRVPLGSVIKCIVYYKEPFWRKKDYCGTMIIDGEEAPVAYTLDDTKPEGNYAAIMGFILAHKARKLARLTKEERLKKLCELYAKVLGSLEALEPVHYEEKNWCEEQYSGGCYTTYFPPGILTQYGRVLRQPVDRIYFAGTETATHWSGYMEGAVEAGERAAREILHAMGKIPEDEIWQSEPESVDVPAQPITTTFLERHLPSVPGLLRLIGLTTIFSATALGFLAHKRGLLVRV
UniProt P21397, whole entry: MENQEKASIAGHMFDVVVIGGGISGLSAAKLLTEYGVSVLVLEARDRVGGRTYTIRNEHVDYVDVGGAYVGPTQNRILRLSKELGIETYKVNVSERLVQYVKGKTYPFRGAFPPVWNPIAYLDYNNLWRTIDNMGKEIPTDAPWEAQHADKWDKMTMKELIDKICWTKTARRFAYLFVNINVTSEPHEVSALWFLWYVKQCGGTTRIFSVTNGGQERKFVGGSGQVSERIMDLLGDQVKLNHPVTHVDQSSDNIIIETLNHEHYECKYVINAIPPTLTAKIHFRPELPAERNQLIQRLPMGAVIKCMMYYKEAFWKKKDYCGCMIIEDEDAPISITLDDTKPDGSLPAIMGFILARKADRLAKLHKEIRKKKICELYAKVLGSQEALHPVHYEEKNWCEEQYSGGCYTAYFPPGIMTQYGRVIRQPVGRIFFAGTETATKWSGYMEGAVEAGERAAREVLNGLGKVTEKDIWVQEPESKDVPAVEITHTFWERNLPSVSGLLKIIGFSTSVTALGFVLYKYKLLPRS

By % inhibition is commonly meant the change of the read-out against control, counted positive when it falls.

In assay [1] the target is human MAO B (Homo sapiens, UniProt P27338). In words: Anti-MAO assay. The settings on record: NI = no inhibition. It counts as biochemical.
Assay [2] deals with human MAO A (Homo sapiens, UniProt P21397). To be noted: added for comparison, ref [13b], [19]; cited from earlier work.

Structures are written as SMILES.

`N[C@@H]1C[C@H]1c1ccccc1` (racemic) [TCP, tranylcypromine, reference compound]: the “% inhibition at 100 μM MAO B” value in assay [1] is 85%.
For the compound `NC1CC1c1ccc(NC(=O)C(Cc2ccccc2)NC(=O)OCc2ccccc2)cc1` (centres unmarked) [2a], the “% inhibition at 100 μM MAO A” value in assay [2] is reported as 94%.
